From patent US11623923B2, “Uracil compound as c-MET/AXL inhibitor” (MEDSHINE DISCOVERY, INC., priority 2017, dated 2023)

System: MKN45 gastric cancer cell line
Test: Assay of inhibitory effect on cell proliferation (CellTiter-Glo)
Details: read-out: MKN45 cell IC50, three days incubation

Question: How did the IC50 turn out when O=C(Nc1ccc(Oc2ccnc(NC(=O)N3CCC(O)CC3)c2)c(F)c1)c1cn(CC2CC2)c(=O)n(-c2ccc(F)cc2)c1=O was run?
Answer: Its IC50 is 12.6 nM.
